In the test the target is PLK1 (Homo sapiens, UniProt P53350). Put plainly: PLK1 Inhibition Assay I (radioactive-phosphate incorporation). The settings on record: read-out: PLK1 inhibition Ki; Ki(app); PLK1 Inhibition Assay I or II (table does not say which). As to the method: The compounds of the present invention are evaluated as inhibitors of human PLK kinase using the following assays.
Compounds were screened for their ability to inhibit PLK1 using a radioactive-phosphate incorporation assay. Assays were carried out in a mixture of 25 mM HEPES (pH 7.5), 10 mM MgCl2, and 1 mM DTT. Final substrate concentrations were 350 μM [γ-33P]ATP (136 mCi 33P ATP/mmol ATP, Amersham Pharmacia Biotech/Sigma Chemicals) and 450 μM peptide (KKKISDELMDATFADQEAK) [SEQ. ID:1]. Assays were carried out at 25° C. in the presence of 2 nM PLK1. An assay stock buffer solution was prepared containing all of the reagents listed above, with the exception of ATP and the test compound of interest. 30 μL of the stock solution was placed in a 96 well plate followed by addition of 2 μL of DMSO stock containing serial dilutions of the test compound (typically starting from a final concentration of 10 μM with 2-fold serial dilutions) in duplicate (final DMSO concentration 5%). The plate was pre-incubated for 10 minutes at 25° C. and the reaction initiated by addition of 8 μL [γ-33P]ATP (final concentration 350 μM). […]
After removing mean background values for all of the data points, Ki(app) data were calculated from non-linear regression analysis of the initial rate data using the Prism software package (GraphPad Prism version 3.0cx for Macintosh, GraphPad Software, San Diego Calif., USA).

Amino acid sequences for entries named in this document (tags omitted).
UniProt P53350, whole entry: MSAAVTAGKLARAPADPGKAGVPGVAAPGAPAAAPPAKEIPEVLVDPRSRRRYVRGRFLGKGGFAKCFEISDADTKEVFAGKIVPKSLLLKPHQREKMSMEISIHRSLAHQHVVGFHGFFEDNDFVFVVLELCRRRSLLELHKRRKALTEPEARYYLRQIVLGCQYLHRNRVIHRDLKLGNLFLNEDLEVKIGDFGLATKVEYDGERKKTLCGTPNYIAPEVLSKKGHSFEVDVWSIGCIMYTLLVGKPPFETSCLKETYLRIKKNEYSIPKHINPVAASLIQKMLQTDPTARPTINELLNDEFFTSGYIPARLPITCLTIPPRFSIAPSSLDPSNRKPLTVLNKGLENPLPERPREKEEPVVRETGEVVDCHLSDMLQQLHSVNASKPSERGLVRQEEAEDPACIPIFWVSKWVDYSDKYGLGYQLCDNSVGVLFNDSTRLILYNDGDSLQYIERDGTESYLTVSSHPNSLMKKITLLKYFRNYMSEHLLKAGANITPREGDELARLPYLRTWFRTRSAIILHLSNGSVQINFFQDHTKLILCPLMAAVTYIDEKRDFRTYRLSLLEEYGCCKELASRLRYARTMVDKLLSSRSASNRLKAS

The structures appear in SMILES notation.

With `CCN1CCCC1CNc1ncc(C#N)c(-c2c[nH]c3ncc(C(F)(F)F)cc23)n1` (stereo not shown), the Ki is greater than 40 nM.

Source of the values: patent publication US8530489B2 (Vertex Pharmaceuticals Incorporated, priority 2006, dated 2013).
